## Reported properties for industrial, environmental and drug-like chemicals

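The numbers are reported measurements, compiled and curated for the OPERA QSAR suite. One number stands for a compound and property, with no spread given. Method and conditions are not stated for these values. The measured form (salt, isomer or mixture) is not always the one drawn. Some upstream entries may be estimates or bounds without being marked so.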

Melting points are in °C.
Boiling points are in °C, nominally at 760 mmHg.
The octanol-water partition coefficient is given as log10; larger values mean a more lipophilic compound.
Solubility in water is on a log10 molar scale (set defined at 25 °C).
Vapor pressure is log10 of mmHg; the set covers 15 to 30 °C, mostly 20 to 25 °C.
Henry's law constant (air-water partitioning) is log10 of atm·m3/mol, nominally at 25 °C.
fu is the fraction unbound in human plasma, from 0 to 1.
"–" marks a cell with nothing listed here.

MP (°C)	boiling point (°C)	logP (octanol/water)	water solubility (log10 mol/L)	log vapor pressure (log10 mmHg)	log Henry constant (log10 atm·m3/mol)	fraction unbound	SMILES
–	280	–	–	-5.011	–	–	O=C1NCCN1CCO
–	456	–	–	-7.935	–	–	O=c1oc(-c2ccc(-c3nc4ccccc4c(=O)o3)cc2)nc2ccccc12
33	–	4.2	-3.444	-1.667	–	–	CC1C(C)(C)C2=C(C(=O)CCC2)C1(C)C (centres undefined)
79	–	–	–	-5.859	–	–	O=C(O)COCCOCC(=O)O
–	–	-1	–	-3.08	–	–	NC(=O)[C@@H]1CCCN1
6	–	–	–	-1.523	–	–	C=CC(=O)OCC(C)(C)COC(=O)C=C
60.7	–	5.8	-6.371	–	–	–	C=CC(=O)OCCCCOC(=O)Oc1ccc(C(=O)Oc2ccc(OC(=O)c3ccc(OC(=O)OCCCCOC(=O)C=C)cc3)c(C)c2)cc1
-4	–	–	–	-4.815	–	–	CCCCCCCCCCCCN1CCCC1=O
–	–	1.7	–	–	–	0.06	CN1CC(=O)N2[C@H](c3ccc4c(c3)OCO4)c3[nH]c4ccccc4c3C[C@@H]2C1=O
–	–	7.47	–	-4.983	–	–	Clc1cc(Cl)c(Cl)c(-c2cc(Cl)c(Cl)c(Cl)c2)c1
–	135.4	–	–	0.824	–	–	C=CC(F)(F)C(F)(F)C(F)(F)C(F)(F)I
–	–	4.2	-4.488	–	–	–	COC(=O)[C@@]1(C)[C@H](C)C[C@H]2[C@@H]3CCC4=CC(=O)C=C[C@]4(C)[C@H]3[C@@H](O)C[C@@]21C
–	–	–	-3.989	-5.488	–	–	c1ccc(OCCOc2ccccc2)cc1
48.5	–	5.52	–	-5.115	–	–	Brc1ccc(Oc2ccc(Br)c(Br)c2)cc1
74.9	367	7.3	–	-5.803	–	–	C/C=C/CCc1ccc(-c2ccc(C)cc2)cc1
–	–	5.11	-7.806	–	–	–	C=CC(=O)OCc1c(Br)c(Br)c(Br)c(Br)c1Br
–	–	-1.5	–	-1.523	–	–	CC(O)COCC(C)O (centres undefined)
-23	191.3	4.1	-3.845	-0.512	–	–	Cc1cccc(Cl)c1C
198.4	–	–	-7.42	-8.201	–	–	COc1cc([N+](=O)[O-])ccc1N=NC(C(C)=O)C(=O)Nc1ccc(S(=O)(=O)NCCCN(C)C)cc1 (centres undefined)
–	–	1.67	-2.19	-6.726	-5.258	–	CN(C)S(=O)(=O)Nc1ccccc1

Excerpt, the final 2 entries:

SMILES	MP (°C)	boiling point (°C)	logP (octanol/water)	water solubility (log10 mol/L)	log vapor pressure (log10 mmHg)	log Henry constant (log10 atm·m3/mol)	fraction unbound
COc1cc([N+](=O)[O-])ccc1N=NC(C(C)=O)C(=O)Nc1ccc(S(=O)(=O)NCCCN(C)C)cc1 (centres undefined)	198.4	–	–	-7.42	-8.201	–	–
CN(C)S(=O)(=O)Nc1ccccc1	–	–	1.67	-2.19	-6.726	-5.258	–

Data: OPERA 2.9 data sets, kmansouri/OPERA on GitHub.